Laboratory results published in patent US6951654B2, “Intravaginal drug delivery devices for the administration of an antimicrobial agent” (Galen (Chemicals) Limited, priority 2001, dated 2005).

Assay: Solubility in water
Conditions: at 37° C.

- aqueous solubility: 190 μg per 100 ml
Substance: oestradiol-3-acetate
